By UniProt entry, the sequences of proteins in these tests, tags left out.
UniProt P30518, whole entry: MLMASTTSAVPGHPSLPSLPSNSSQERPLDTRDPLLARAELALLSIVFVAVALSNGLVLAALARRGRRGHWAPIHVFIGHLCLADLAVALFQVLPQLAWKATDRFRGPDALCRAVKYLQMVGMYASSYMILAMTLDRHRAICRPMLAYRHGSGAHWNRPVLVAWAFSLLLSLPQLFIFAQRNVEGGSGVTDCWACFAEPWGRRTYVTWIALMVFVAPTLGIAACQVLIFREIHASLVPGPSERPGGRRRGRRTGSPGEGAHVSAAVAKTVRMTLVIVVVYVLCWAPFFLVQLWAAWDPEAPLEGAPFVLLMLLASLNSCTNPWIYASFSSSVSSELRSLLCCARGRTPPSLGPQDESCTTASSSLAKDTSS

According to patent publication US6936604B2, “Bridged bicyclic amino acid-derived [1,4]benzodiazepine vasopressin receptor antagonists” (Ortho-McNeil Pharmaceutical, Inc., priority 2001, dated 2005):

Target: T1, human V2 receptor (Homo sapiens, UniProt P30518)
T1 construct: expressed in transfected cells; host or cells: HEK-293
Assay: In vitro recombinant vasopressin receptor binding assay (3H-arginine vasopressin displacement), V2
Settings: cloned human V2 receptor membranes, HEK-293 cells
Method: In Vitro Recombinant Vasopressin Receptor Binding Assay
Compounds were assessed for their ability to displace ^3H-arginine vasopressin from the human V1a or V2 receptor in HEK-293 cells. Assay buffer is 50 mM Tris-Cl, 5 mM MgCl2, 0.1% BSA (pH 7.5) containing 5 μg/mL of aprotinin, leupeptin, pepstatin, 50 μg/mL bacitracin, and 1 mM Pefabloc. ^3H-vasopressin is ^3H-arginine-8-vasopressin (68.5 Ci/mmol, final concentration in assay is 0.65-0.75 nM). Into wells of 96-well round bottom polypropylene plates were added buffer, test compound, membrane (containing cloned human V1a or V2 receptor) and ^3H-vasopressin. The reaction plates were allowed to sit at room temperature for one hour. The samples were filtered through Unifilter GF/C plates (presoaked in 0.3 polyethyleneimine). The plates were washed 5 times with cold physiological saline containing 0.05% Tween 20. After drying, the bottom of the filter plates were sealed and 0.025 mL of Microscint-20 was added to each filter. The top of the plate was sealed, and the plate was counted.

IC50: 6 nM
Structure (SMILES): O=C(Nc1ccc(C(=O)N2CC3C4CCC(CC4)N3Cc3ccccc32)cc1)c1ccccc1-c1ccccc1 (racemic) [Compound 1, N-[4-[(6,6a,7,8,9,10-hexahydro-7,10-ethanopyrido[2,1-c][1,4]benzodiazepin-5(12H)-yl)carbonyl]phenyl]-[1,1′-biphenyl]-2-carboxamide]
